scFv variants of Ab-95 (light chain) against a SARS-CoV-2 spike peptide

From the AlphaSeq antibody data of Engelhart et al. 2022 (doi:10.1038/s41597-022-01779-4), copy in the FLAb collection.

Antigen: PDVDLGDISGINAS, a 14-residue peptide of the SARS-CoV-2 spike HR2 region.

Parent: Ab-95, a human scFv built as VH, three GGGGS repeats, VL. Only the CDRs of the light chain vary.
VH: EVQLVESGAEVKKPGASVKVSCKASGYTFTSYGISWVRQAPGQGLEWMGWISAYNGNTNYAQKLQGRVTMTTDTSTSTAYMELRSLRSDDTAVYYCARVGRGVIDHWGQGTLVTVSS
VL: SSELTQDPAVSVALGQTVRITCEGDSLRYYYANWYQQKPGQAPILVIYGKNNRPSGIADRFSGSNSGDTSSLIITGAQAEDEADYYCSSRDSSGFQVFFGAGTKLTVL

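The parent was found by panning a naive human phage display library on the peptide. AAYL52 was designed without a model: most single CDR substitutions and a random sample of double and triple ones. The scFvs were displayed on barcoded MATa yeast, the peptide on MATalpha yeast. After mating in shaken culture at 30 °C for 16 h, diploids were selected and their barcode pairs sequenced. Read counts were normalised to the haploid input and turned into Kd by a linear fit to BCL2-family pairs of known affinity, for each replicate. There are three technical replicates.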

Each variant is given by its three light chain CDRs, as the data file delimits them; those of the parent are EGDSLRYYYAN, GKNNRPS, SSRDSSGFQVF. Numbers give log10(Kd / nM), so 0 is 1 nM and 3 is 1 µM. Smaller is tighter. The mean shown is taken over the replicates in which the pair was detected. "nd" means that the variant was in the library but no mating with the target was seen in that replicate; the authors take this as a sign of poor binding, and no number exists. Background: pairings of library AAYL52 with three empty control strains gave a value in 28% of cases (median 3.91, 5th percentile 2.90). Values in that range, when seen in few replicates, are hard to tell from nonspecific mating. For each scFv, signals with the empty controls are counted beside the result, with their mean in brackets.

CDR-L1,CDR-L2,CDR-L3,"log10 Kd, replicates",mean log10 Kd (nM),empty controls
EGDSLRYYYAN,GKLNRIS,FSRDSSGFQVF,nd / 5.00 / nd,5.00,2/9 (2.85)
NGDSLRYYYAN,GKNNRPD,SSRTSSGFQVF,2.50 / 2.41 / 3.30,2.74,1/9 (2.96)
EGDSGRYYYAN,GKNNRPS,SSPDSSGAQVF,nd / nd / nd,nd,0/9
EGDSLDPYYAN,GKNMRPS,SSRDSSGFQVF,2.19 / 1.98 / 1.53,1.90,7/9 (3.96)
EGDGLRYYYAN,CKNNHPS,SSRDSSGFQVF,nd / 5.25 / nd,5.25,1/9 (5.39)
EADSLRYYYAN,GKNNRPS,SSRDSSGFDDF,nd / nd / 4.30,4.30,3/9 (3.65)
EGDSLRRYYAN,GKNNRPS,SSRDWHGFQVF,3.73 / 2.87 / nd,3.30,3/9 (3.43)
ELDSLRYYYAN,GKNNKPS,SSDDSSGFQVF,3.36 / 4.92 / 3.81,4.03,4/9 (3.22)
EGDSLRYYHAN,GKNNRPS,SSRDHSGRQVF,2.66 / 2.72 / 2.56,2.64,4/9 (3.55)
EGDSLRYYYAN,GKNNRPS,SCMDSSDFQVF,nd / nd / nd,nd,0/9
CGDSLHYWYAN,GKNNRPS,SSRDSSGFQVF,2.85 / 2.84 / nd,2.85,1/9 (3.58)
EGDSLRYYYAK,GKNRRPS,SSADSSGFQVF,2.95 / 3.11 / 2.59,2.88,2/9 (3.54)
RGDNLRYYYAN,GKNNRPS,SSRDSCGFQVF,2.19 / 1.79 / 1.98,1.98,2/9 (3.63)
EGDSLRYYYAN,GKNNRPS,SSRDFSGLQVH,3.35 / 2.69 / 2.11,2.71,2/9 (3.04)
EGDSLRYSYAN,GMNNRYS,SSRDSSGFQVF,1.64 / 1.50 / 1.43,1.53,1/9 (3.68)
EMDSLRYYVAN,GKNNRPS,SERDSSGFQVF,4.02 / nd / 3.29,3.66,2/9 (3.80)
EGDKLRYYYAN,GKNNRQS,SSRDSSGFQVQ,5.07 / 5.60 / 3.84,4.84,6/9 (4.01)
EGDDIRYYYAN,GKNNRPS,VSRDSSGFQVF,4.44 / 4.36 / nd,4.40,1/9 (3.52)
DGDSLRYYYAW,GKNNRPN,SSRDSSGFQVF,nd / 2.62 / 3.44,3.03,3/9 (3.78)
EGDSLRYYYAN,GQNNRPS,SSRWSSGQQVF,1.80 / 1.71 / 1.42,1.64,5/9 (3.86)
EGDSLRYYCAN,GKNNRPS,SSRDKSGCQVF,2.55 / 2.17 / 2.24,2.32,1/9 (5.57)
EGDSRRYYYAN,GKNNRPS,TSFDSSGFQVF,5.23 / 3.35 / nd,4.29,1/9 (3.85)
EGDSLRYYIQN,GKNNRPS,SSRDSSGFQVT,nd / 4.31 / nd,4.31,3/9 (4.04)
EGDSLRYYYAN,NKNNRPS,SSDDNSGFQVF,nd / 3.10 / 3.62,3.36,1/9 (3.51)
TGDSLRAYYAN,GKNLRPS,SSRDSSGFQVF,1.71 / 1.51 / 1.43,1.55,0/9
EGDSLRYMYAN,GKTNRPS,SSRDMSGFQVF,2.70 / 2.92 / 2.58,2.73,4/9 (4.99)
EGDSLRYYYAN,GKNNNPS,GSRDSWGFQVF,nd / nd / 4.25,4.25,1/9 (4.16)
EGDSLRYYYAN,GKNNRPS,FSRDDSIFQVF,5.50 / nd / nd,5.50,2/9 (3.07)
ELDSCRYYYAN,GKNNRPS,SSRDSSVFQVF,nd / 4.34 / nd,4.34,3/9 (3.76)
EPDVLRYYYAN,GKNNRPS,YSRDSSGFQVF,3.55 / 3.85 / 3.99,3.80,1/9 (3.33)
EGDSLRYYYAN,GKNNRPS,SSRDSSGGQKF,nd / nd / nd,nd,1/9 (3.64)
EGDSLRYYYAN,GKFNRPS,KSRDSSGFEVF,3.74 / 5.10 / nd,4.42,3/9 (3.45)
EGDSLRYSYAN,GKNNRPS,PSRDSSGFQMF,nd / 4.15 / nd,4.15,0/9
YGDSLRYYLAN,GVNNRPS,SSRDSSGFQVF,2.95 / 3.25 / 3.19,3.13,2/9 (4.63)
EGDSLRYYLMN,GANNRPS,SSRDSSGFQVF,3.13 / 2.11 / 2.62,2.62,6/9 (3.63)
EGDSLRYYYAN,GKNNRPS,STRDSLGFQVV,5.41 / 4.04 / 4.42,4.62,4/9 (4.02)
EGDSLRYYYYY,GKNNRPS,WSRDSSGFQVF,4.81 / 4.33 / nd,4.57,1/9 (4.37)
EGMSLRYYYAN,GKNNRPS,SSRDSSGFQGF,2.85 / nd / nd,2.85,0/9
EGDSLRRYYAN,GKNNRPS,SCRQSSGFQVF,3.55 / 3.46 / 3.17,3.40,4/9 (4.13)
EGCSNRYYYAN,GKNNRPS,SSRYSSGFQVF,nd / 4.66 / 4.22,4.44,1/9 (4.15)
EGDSLREYYAN,GKNNLPS,SSRDSYGFQVF,4.12 / 5.28 / nd,4.70,3/9 (4.05)
EQDSLRYYYAV,GKNNRPS,SSRDSSGFCVF,3.53 / nd / nd,3.53,2/9 (2.92)
EGDSLRYYYAN,GKQNRPS,ASRDSSGFQVY,3.67 / 2.72 / 2.80,3.06,0/9
EGDSPRYYYAN,GKNNAPS,SSRDSSCFQVF,4.25 / 3.26 / nd,3.75,1/9 (2.91)
ENDSLRYRYAN,GKNNRPS,SSRDSSGFQVF,3.01 / 2.94 / 2.54,2.83,2/9 (3.63)
SGWSLRYYYAN,GKNNRPS,SSRDRSGFQVF,3.09 / 3.46 / nd,3.28,0/9
EGASLRSYYAN,GENNRPS,SSRDSSGFQVF,1.06 / 1.39 / 0.84,1.09,1/9 (3.50)
EGDSLRYYYAN,GKNNRPS,SQRDSDGFQVL,nd / nd / nd,nd,0/9
EGDSLRYYHAN,GKNNPPS,SSRDDSGFQVF,2.80 / nd / 3.56,3.18,5/9 (4.12)
EGDSLNYYYAN,GKNTRPS,SIRDSSGFQVF,nd / 4.47 / 2.83,3.65,2/9 (3.46)

The first 4 variants above that were never detected:

{"CDR-L1": "EGDSGRYYYAN", "CDR-L2": "GKNNRPS", "CDR-L3": "SSPDSSGAQVF", "log10 Kd, replicates": "nd / nd / nd", "mean log10 Kd (nM)": "nd", "empty controls": "0/9"}
{"CDR-L1": "EGDSLRYYYAN", "CDR-L2": "GKNNRPS", "CDR-L3": "SCMDSSDFQVF", "log10 Kd, replicates": "nd / nd / nd", "mean log10 Kd (nM)": "nd", "empty controls": "0/9"}
{"CDR-L1": "EGDSLRYYYAN", "CDR-L2": "GKNNRPS", "CDR-L3": "SSRDSSGGQKF", "log10 Kd, replicates": "nd / nd / nd", "mean log10 Kd (nM)": "nd", "empty controls": "1/9 (3.64)"}
{"CDR-L1": "EGDSLRYYYAN", "CDR-L2": "GKNNRPS", "CDR-L3": "SQRDSDGFQVL", "log10 Kd, replicates": "nd / nd / nd", "mean log10 Kd (nM)": "nd", "empty controls": "0/9"}